This assay has as its target T1, Interstitial collagenase (Homo sapiens, UniProt P03956).
T1 sequence (P03956 whole entry): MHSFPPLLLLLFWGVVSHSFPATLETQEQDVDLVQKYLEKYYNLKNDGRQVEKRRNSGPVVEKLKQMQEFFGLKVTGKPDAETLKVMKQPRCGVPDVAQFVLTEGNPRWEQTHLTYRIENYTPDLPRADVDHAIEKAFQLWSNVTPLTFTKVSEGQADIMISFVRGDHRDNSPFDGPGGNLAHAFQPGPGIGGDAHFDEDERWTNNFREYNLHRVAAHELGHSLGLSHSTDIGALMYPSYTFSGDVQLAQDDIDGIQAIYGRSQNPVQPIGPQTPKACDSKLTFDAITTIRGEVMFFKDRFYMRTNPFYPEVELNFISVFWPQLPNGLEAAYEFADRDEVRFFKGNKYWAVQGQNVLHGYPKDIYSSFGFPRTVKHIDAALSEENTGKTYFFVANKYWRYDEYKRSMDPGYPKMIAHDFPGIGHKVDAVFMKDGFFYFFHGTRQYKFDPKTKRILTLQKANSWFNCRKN

The IC50 is the concentration that inhibits the measured activity by half. Lower therefore signals greater potency in that assay. `O=C(NO)C1(S(=O)(=O)c2ccc(Oc3ccc(C(F)(F)F)cc3)cc2)CCN(C2CC2)CC1` gave a half-maximal inhibitory concentration (IC50) greater than 10 µM.
